Species: Homo sapiens
Assay: Selectivity index, ratio of IC50 for ALR2 (unknown origin) to IC50 for ALR1 (unknown origin)

With `O=C1NC(=O)C2(CCCCC2)N1S(=O)(=O)c1ccc(Cl)s1` the Ratio IC50 was 127.

Source: ChEMBL document CHEMBL5244260, “Aldose reductase and protein tyrosine phosphatase 1B inhibitors as a promising therapeutic approach for diabetes mellitus” (Eur J Med Chem, 2020)
